The values that follow come from ChEMBL document CHEMBL4414606, “Bioactive Streptoglutarimides A-J from the Marine-Derived Streptomyces sp. ZZ741” (J Nat Prod, 2019).

As usually defined, the MIC is the lowest concentration found to suppress growth.

In the experiment the test system is Staphylococcus aureus. The experiment can be described thus: Antibacterial activity against methicillin resistant Staphylococcus aureus assessed as reduction in bacterial growth incubated for 12 hrs by microdilution method. Format: functional. (In broth dilution the organism is exposed to a series of concentrations in liquid medium.)

Turning to GENTAMICIN, the minimal inhibitory concentration (MIC) is 0.5 µg/mL.
